Source: ChEMBL document CHEMBL3865825, “Discovery of novel Tetrahydrobenzo[b]thiophene and pyrrole based scaffolds as potent and selective CB2 receptor ligands: The structural elements controlling binding affinity, selectivity and functionality” (Eur J Med Chem, 2016)

Chains of the proteins cited; added tags and fusions are not shown.
UniProt P21554, whole entry: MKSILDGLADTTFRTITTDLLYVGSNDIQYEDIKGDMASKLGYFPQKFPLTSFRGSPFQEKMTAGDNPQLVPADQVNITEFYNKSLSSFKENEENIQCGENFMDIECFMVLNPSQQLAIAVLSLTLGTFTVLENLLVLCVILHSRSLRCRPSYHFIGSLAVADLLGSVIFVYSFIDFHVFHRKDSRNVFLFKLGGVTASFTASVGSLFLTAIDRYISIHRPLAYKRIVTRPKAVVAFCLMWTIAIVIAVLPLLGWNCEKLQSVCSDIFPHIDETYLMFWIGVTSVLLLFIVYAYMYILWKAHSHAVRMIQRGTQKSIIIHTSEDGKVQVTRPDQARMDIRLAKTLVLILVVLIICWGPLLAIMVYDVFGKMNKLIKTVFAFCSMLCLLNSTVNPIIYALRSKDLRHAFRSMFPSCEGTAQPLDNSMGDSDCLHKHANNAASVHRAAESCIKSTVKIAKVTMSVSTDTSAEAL

Target: Cannabinoid receptor 1 (Homo sapiens, UniProt P21554)
Assay: Displacement of [3H]-CP-55940 from human CB1 receptor expressed in HEK293 cell membranes after 90 mins by radioligand binding assay

For `Cc1ccc(Cn2nc(C(=O)N[C@@H]3C(C)(C)[C@@H]4CC[C@@]3(C)C4)cc2-c2ccc(Cl)c(C)c2)cc1`, which Ki is on record?
The Ki was 117 nM.
